Test results from patent US20250101129A1, “AFFINITY SUBSTANCE, COMPOUND, AND ANTIBODY AND THEIR SALTS” (Ajinomoto Co., Inc., priority 2022, published 2025).

Experiments:
[1] = tested on: CD3-activated human T cells containing PD-1-positive cells; test: Flow cytometry binding to CD3-activated human T cells; type: cell-based; details: primary antibody final concentration 20 g/mL as printed, Alexa Fluor 488 anti-human IgG secondary
Description: The cells used were CD3-activated human T cells containing HER2-positive SKBR-3 cells, EGFR-positive A-431 cells, and PD-1-positive cells.
200,000 cells cultured in D-MEM medium (Thermo Fisher Scientific, Inc.) supplemented with 10% FBS (Thermo Fisher Scientific, Inc.) were collected, and 20 μL of PBS containing Human TruStain FcX (Biolegend) was added, followed by blocking of Fc receptors on ice for 10 minutes. The primary antibody reaction was performed by adding the above-described antibodies as primary antibodies to a cell staining buffer (PBS containing 1% FBS) to a final concentration of 20 µg/mL, adding 20 μL of the mixtures to the cells, and incubating them for 20 minutes on ice. The cells after the primary antibody reaction were washed twice with the cell staining buffer. The second antibody reaction was performed by adding 40 μL of Goat anti-Human IgG (H+L) Cross-Adsorbed Secondary Antibody, Alexa Fluor™488 (Thermo Fisher Scientific, Inc.) diluted with the cell staining buffer to 10 µg/mL as the second antibody to the cells, and incubating the cells on ice for 20 minutes. The cells were washed twice with the cell staining buffer, and then subjected to analysis using Attune NxT Flow Cytometer (Thermo Fisher Scientific, Inc.).

[2] = tested on: HER2-positive SKBR-3 cells; test: Flow cytometry binding to antigens on SKBR-3 cells; type: cell-based

## cetuximab
[1]
  cells in which fluorescence was observed (positive rate), CD3-activated human T cells: Little or no fluorescence
[2]
  binding to SKBR-3 cells (in words): only bound to A-431 cells
